The values that follow come from US10098974B2, “Catalytic radiofluorination” (priority 2004, dated 2018).

A short description of series [1]: Biodistribution of TPPI in rats.
The next series has as its system C6-BAG glioma. Kind of series: Biodistribution of TPPI in rats implanted with C6-BAG glioma.

For “[I-125]-p-iodophenyltriphenylphosponium nitrate”, the Heart activity entry in series [1] (rats, 5, 30 and 60 minutes) is “over 0.7 % dose per gram”. Besides, the Heart-to-lung ratio is listed as 0.96 in series [1] (rats, 5 minutes); 1.62 in series [1] (rats, 30 minutes); 1.5 in series [1] (rats, 60 minutes). Also, the heart-to-blood ratio is 2.9 in series [1] (rats, 5 minutes); 8.3 in series [1] (rats, 30 minutes); 12.1 in series [1] (rats, 60 minutes). In addition, the “retention of activity in the heart” value in series [1] (rats, period of 60 min) is “remained constant”. Moreover, the tumor-to-brain ratio worked out at 40 in the series with C6-BAG glioma (60 minutes), 17 with C6-BAG glioma (120 minutes) and 44 with C6-BAG glioma (240 minutes). Moreover, the “washout from the tumor” value in the series on C6-BAG glioma (240 minutes) is listed as “no washout”. For the same substance, the Tumor-to-blood ratio in the series on C6-BAG glioma (at all times (60, 120, 240 minutes)) amounted to 12.
